These results are taken from patent publication EP4732851A9, “LINKER, ANTIBODY-DRUG CONJUGATE, AND PREPARATION METHOD THEREFOR” (Fudan University, priority 2024, dated 2025).

One assay concerns NCI-N87 cells. Description: NCI-N87 nude mouse xenograft model. The format is in vivo, Balb/c nude. To be noted: 5 mg/kg via tail vein, two doses (day 16 and day 23); compared to hIgG1-vc-MMAE control group. As to the method:
Referring to the in vivo efficacy assay method in Example 11, 200 µL of a suspension containing 5×10^6 NCI-N87 cells in PBS and Matrigel (PBS:standard concentration Matrigel = 1:1) was inoculated subcutaneously into the flank of female nude mice (Balb/c nude, 5-6 weeks old). When the tumor volume reached approximately 400 mm^3 (day 16), the mice were randomly grouped (n=8) based on tumor volume and body weight. Doses of 5 mg/kg T-Dxd (DAR=8) and 5 mg/kg 1-G07-LP5 (DAR=3.4) were administered via tail vein injection for a total of two doses (on day 16 and day 23), with hIgG1-vc-MMAE set as the negative control. […] The difference in efficacy between the two groups was statistically significant (p < 0.05).

The test system of a further assay is NCI-N87-luc cells. Description: NCI-N87 intracranial model. It is filed as in vivo, Balb/c nude mice. Conditions: 5 mg/kg via tail vein, 2 doses one week apart; compared to vehicle group. As to the method: An NCI-N87 intracranial model was established to evaluate 1-G07-LP5. NCI-N87-luc cells were resuspended in PBS and adjusted to a concentration of 1×10^8/mL. A microsyringe was used to draw 5 µL of the cell suspension (5×10^5 cells) for inoculation. Female Balb/c nude mice aged 6-7 weeks were anesthetized with Avertin and fixed on a brain stereotaxic instrument. Using the mouse's bregma as the center, the microsyringe needle was moved 2 mm to the right and 0.6 mm upward. After drilling through the skull with a triangular needle, the needle was inserted 4 mm downward, then withdrawn 1 mm, and the tumor cells were injected at a constant speed. The burr hole was sealed with bone wax, and finally the scalp was sutured. 9 days later, D-luciferin (150 mg/kg) was injected intraperitoneally, and fluorescence images were acquired using a small animal fluorescence/CT in vivo imaging system to quantify the brain fluorescence signal intensity. Grouping was based on fluorescence signal intensity (Radiance (p/sec/cm^2/sr)) and mouse body weight. Vehicle control, 5 mg/kg 1-G07-LP5, and 5 mg/kg T-Dxd groups were set up. […] Fluorescence images were acquired every 1-2 weeks using the small animal fluorescence/CT in vivo imaging system to monitor brain fluorescence signal intensity (Radiance (p/sec/cm^2/sr)) and mouse body weight, and tumor growth curves were plotted.

trastuzumab deruxtecan [T-Dxd]: the tumor growth entry with NCI-N87 cells was “inhibited tumor growth”. Besides, the “intracranial tumor growth (brain fluorescence signal)” value in the assay with NCI-N87-luc cells was “completely inhibited intracranial tumor growth”.
